## Apparent affinities of Ab-14 variants for a coronavirus HR2 peptide

Reference: Li et al. 2023, doi:10.1038/s41467-023-39022-2. File: FLAb, binding data.

Target peptide (SARS-CoV-2 spike, HR2 region): PDVDLGDISGINAS

Each scFv is VH, three GGGGS repeats, VL, as in the parent Ab-14, and differs from it in the CDRs of the light chain only.
VH: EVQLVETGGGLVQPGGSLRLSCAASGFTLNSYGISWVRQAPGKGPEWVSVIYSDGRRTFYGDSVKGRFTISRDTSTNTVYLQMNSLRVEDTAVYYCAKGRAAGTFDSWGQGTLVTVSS
VL: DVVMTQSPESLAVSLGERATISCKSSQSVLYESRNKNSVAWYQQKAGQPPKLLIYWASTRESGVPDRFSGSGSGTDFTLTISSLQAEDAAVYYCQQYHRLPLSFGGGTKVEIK

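The starting antibody came from a phage panning campaign against this peptide. This is the validation round: designs drawn from the data on random variants, tested in the same kind of assay. Group labels follow the data file (Ctrl: baseline library sampled from a position-specific scoring matrix, with some repeated check sequences; En: ensemble of fine-tuned language models; GP: Gaussian process model; HC: hill climbing; Gen: genetic algorithm; Gibbs: Gibbs sampling; a sequence that several methods proposed may carry one label only). AlphaSeq pools MATa yeast showing the antibodies with MATalpha yeast showing the peptide. Pairs that bind mate more often; barcode pairs of the diploids are counted by sequencing. A regression on co-assayed BCL2-family reference pairs converts the normalised counts of each replicate to an apparent Kd. Each pool was mated in six replicate cultures.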

Variants are written as CDR1, CDR2 and CDR3 of the light chain (limits as in the source). Parent: KSSQSVLYESRNKNSVA, WASTRES, QQYHRLPLS. Values are log10 of the apparent Kd in nM; lower means stronger binding. "ND" means that the variant was in the library but no mating with the target was seen in that replicate; the authors take this as a sign of poor binding, and no number exists. The parent sequence was in this pool as ten entries: three were never detected, three once, and four in most replicates, with averages from 0.34 to 2.37. Nonspecific signal, from three strains lacking the peptide, appeared in 4% of pairings of all light chain designs, centred on 2.64 (5% of these signals below 1.59); values are not corrected for it. The control count says in how many pairings with the empty strains this scFv gave a signal, with their mean in brackets. In the paper, a design with two or fewer of six values counts as a poor binder. A sequence measured in both rounds can read differently, since the two assays cover different ranges.

log10 Kd (nM) by replicate	signal with controls	CDR-L1	CDR-L2	CDR-L3	group
1.41 / 1.66 / 1.01 / 0.77 / 1.46 / 1.21	2 of 18 (2.74)	KIGQMSTIESIMHNSVA	QTSTREN	QQYDRLPLS	En_HC
2.30 / 2.38 / 1.48 / 1.99 / 3.00 / 1.62	0 of 18	KVSEFMKGLMARTDSIA	DNVTRNN	QQYDRLPLS	En_Gen
0.22 / -0.05 / -0.10 / -0.06 / -0.32 / -0.46	0 of 18	KFSDSVLLESRTKNAVA	NASTRES	QQYHRLPLS	GP_HC
2.43 / ND / ND / ND / ND / ND	0 of 18	KLYDMAAVTMQNIRNVA	DNSTREY	QQYNRLPLS	En_Gen
1.05 / 0.48 / 0.68 / 0.57 / 0.51 / 0.52	0 of 18	KLGSSTRFESNNKASIA	DNSTRES	QQYHRLPLS	En_HC
0.45 / 0.56 / -0.02 / 0.28 / 0.59 / 0.31	0 of 18	KVQQSELYESRNKNSVA	NASTRLS	QQYHRLPLS	GP_Gen
3.37 / ND / 2.67 / 2.64 / 3.02 / 4.06	0 of 18	KLGQTVGYESRNKSRVA	DNSTRES	QQYDRLPLS	En_HC
0.76 / 0.77 / 0.64 / 0.72 / 0.59 / 0.79	1 of 18 (2.32)	HMSMLTLQGMRHTNSVA	QMTTRVN	QQYDRLPLM	En_Gen
0.07 / 1.38 / 0.98 / 0.92 / 1.18 / 0.47	3 of 18 (2.69)	KLGSSSRFESSNKASIA	DNSTRES	QQYHRLPLS	En_HC
0.29 / 0.29 / 0.20 / -0.04 / 0.18 / 0.39	1 of 18 (1.92)	KQSQMVLYESRNKNAVA	DASTRES	QQYHWLPLS	GP_HC
ND / ND / ND / ND / ND / 2.17	0 of 18	HSSGSVLYESTNKNSVA	WASTRES	QQYHREPLS	Ctrl
ND / ND / ND / ND / ND / 5.02	2 of 18 (3.00)	MLSQSVGYESRNKSRVA	DNSTRES	QQYDRLPLS	En_HC
1.01 / 0.53 / ND / 0.36 / 0.41 / 1.42	0 of 18	NISYLQGLSTNSVNNVA	QASMRAP	QYYQRLPLC	En_Gibbs
0.26 / 0.10 / -0.04 / -0.21 / -0.10 / 0.09	1 of 18 (2.92)	KISQSVLYESRAQNAVA	EASTRCD	QQYHRLPLS	GP_Gibbs
0.35 / 0.75 / 0.36 / 0.58 / 0.70 / 0.89	0 of 18	MVTQMAMSGMTNKRSVA	NAETREA	QQYHRLPLI	En_Gen
-0.20 / -0.25 / -0.25 / -0.24 / 0.00 / 0.24	0 of 18	KLEMSVQMESRNKNSVA	NASTRER	QQYHRLPLS	GP_Gibbs
-0.33 / -0.37 / -0.65 / -0.69 / -0.89 / -0.37	0 of 18	KISQSVLYESRNQNSVA	GASKRES	QQYHRLPLS	Ctrl
0.04 / -0.17 / -0.02 / -0.01 / -0.06 / 0.05	2 of 18 (1.97)	ALSQSVLYESRNKNSVA	EASTRES	QQYHRLPLS	GP_Gen
0.82 / 0.52 / 0.61 / 0.64 / 1.26 / 0.65	0 of 18	ILSQSVLMGMHLKNSVA	QASTRFD	QQYHRLPLM	En_HC
0.05 / -0.13 / -0.12 / -0.45 / -0.01 / 0.14	1 of 18 (1.31)	KLMQMPEYESRNANSVA	NASQREE	QQYHRLPLS	GP_Gibbs
1.09 / 0.39 / 0.52 / 0.34 / 0.30 / 0.36	0 of 18	KIGQTLNQLMHQINNVA	DLVMREK	QQYHRLPLS	En_Gen
0.41 / 0.29 / 0.38 / -0.06 / 0.26 / 0.43	1 of 18 (1.85)	KSSQSWLYESRNSNSVA	NGSTREL	QDYHRLPLS	GP_Gibbs
1.05 / 1.30 / 0.99 / 1.37 / 1.68 / 1.43	0 of 18	WLSMSVMLESRNVNSVA	SASTREE	QQYHRLPLS	GP_Gibbs
0.01 / 0.17 / 0.09 / -0.36 / -0.44 / 0.02	0 of 18	KLSQSELYEERNKNSVA	NASQRES	QQYHRLPLS	GP_Gen
0.10 / -0.11 / -0.24 / -0.50 / -0.48 / -0.13	1 of 18 (2.80)	KLQQSELYESRNKNSVA	DASQRES	QQYHRLPLS	GP_Gen
0.30 / 0.09 / 0.19 / -0.03 / -0.11 / 0.10	4 of 18 (2.53)	HMMMYSEMQNIIQNNIA	DAMTRVT	QQYQHLPLS	En_Gibbs
-0.27 / -0.57 / -0.54 / -0.66 / -0.59 / -0.40	1 of 18 (2.07)	KASQSWLYESRNKNSVA	GASLRES	QQYHRLPLS	GP_HC
ND / ND / 1.24 / ND / ND / ND	0 of 18	HLGLVTMLEEAVRNSVA	NNSTREQ	QQYDRLPLS	En_Gen
0.38 / 0.24 / 0.27 / 0.01 / 0.08 / 0.56	2 of 18 (2.71)	KLRQSTLYESRNKNSVA	QASTRES	QQYHRLPLI	GP_HC
-0.14 / 0.12 / 0.11 / -0.06 / -0.12 / -0.27	0 of 18	KLSSISGTEKVHGNNVA	EMETRER	QQYNRLPLA	En_Gen
0.75 / 0.18 / 0.19 / 0.52 / 0.48 / 0.81	0 of 18	KIGMTLNTLSHKQNNVA	DLVTREN	QQYFRLPLS	En_Gen